# ChEMBL document CHEMBL5365467 (J Med Chem, 2023)
# Chains of the proteins cited; added tags and fusions are not shown.
# UniProt P10275, whole entry, looked up, stated change not applied: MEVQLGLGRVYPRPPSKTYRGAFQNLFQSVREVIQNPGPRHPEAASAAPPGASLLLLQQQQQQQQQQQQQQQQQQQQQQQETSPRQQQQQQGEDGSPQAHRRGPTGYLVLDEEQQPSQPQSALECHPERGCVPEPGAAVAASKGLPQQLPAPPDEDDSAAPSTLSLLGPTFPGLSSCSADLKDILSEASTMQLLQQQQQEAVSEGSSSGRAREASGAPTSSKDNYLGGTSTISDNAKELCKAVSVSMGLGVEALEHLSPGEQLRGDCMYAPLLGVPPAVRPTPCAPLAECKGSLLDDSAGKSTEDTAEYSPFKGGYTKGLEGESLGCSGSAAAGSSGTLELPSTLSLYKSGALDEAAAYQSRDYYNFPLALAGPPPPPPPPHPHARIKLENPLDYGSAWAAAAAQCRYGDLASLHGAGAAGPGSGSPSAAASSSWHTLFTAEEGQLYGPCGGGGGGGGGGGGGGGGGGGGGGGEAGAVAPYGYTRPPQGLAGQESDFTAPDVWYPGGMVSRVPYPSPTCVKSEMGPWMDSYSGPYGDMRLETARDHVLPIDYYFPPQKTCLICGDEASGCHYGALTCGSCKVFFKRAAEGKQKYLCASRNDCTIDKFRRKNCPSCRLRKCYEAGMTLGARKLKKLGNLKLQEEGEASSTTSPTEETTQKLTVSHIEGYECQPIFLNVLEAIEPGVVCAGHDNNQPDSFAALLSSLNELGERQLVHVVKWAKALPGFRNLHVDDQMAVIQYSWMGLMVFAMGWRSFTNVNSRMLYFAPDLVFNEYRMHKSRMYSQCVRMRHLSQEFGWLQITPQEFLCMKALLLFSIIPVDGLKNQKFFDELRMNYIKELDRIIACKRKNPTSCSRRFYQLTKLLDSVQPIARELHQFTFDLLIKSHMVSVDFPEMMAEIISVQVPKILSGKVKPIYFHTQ
# UniProt Q96SW2, whole entry, looked up, stated change not applied: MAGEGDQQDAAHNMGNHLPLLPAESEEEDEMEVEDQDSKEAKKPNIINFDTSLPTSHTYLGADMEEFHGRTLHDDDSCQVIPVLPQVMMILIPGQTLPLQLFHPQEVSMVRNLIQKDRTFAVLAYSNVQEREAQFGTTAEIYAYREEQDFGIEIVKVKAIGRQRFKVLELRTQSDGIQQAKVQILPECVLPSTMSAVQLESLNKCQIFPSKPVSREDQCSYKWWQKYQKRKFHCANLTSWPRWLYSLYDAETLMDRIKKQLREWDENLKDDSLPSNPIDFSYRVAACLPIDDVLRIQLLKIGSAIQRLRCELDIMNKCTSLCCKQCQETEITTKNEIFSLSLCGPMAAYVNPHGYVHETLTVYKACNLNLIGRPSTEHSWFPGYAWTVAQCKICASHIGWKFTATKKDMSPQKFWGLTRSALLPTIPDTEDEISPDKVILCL
# Tests used:
# [1] = tested on: Protein cereblon/Androgen receptor (Homo sapiens), P10275+Q96SW2 [T878A,L702H]; experiment: PROTAC activity at AR T878A/L702H double mutant/CRBN in human MDA-PCa-2b cells assessed as induction of androgen receptor degradation by measuring maximum efficacy measured at 24 hrs by Western blot analysis relative to control; assay type: cell-based
# [2] = biological target: T1, Protein cereblon/Androgen receptor (Homo sapiens, UniProt P10275+Q96SW2); experiment: PROTAC activity at AR/CRBN in human VCaP cells assessed as induction of androgen receptor degradation at 100 nM measured for 3 hrs in presence of MLN4924 by Western blot analysis; assay type: cell-based
# [3] = biological target: T1, Protein cereblon/Androgen receptor; experiment: PROTAC activity at AR/CRBN in human VCaP cells assessed as induction of androgen receptor degradation at 10 to 100 nM measured after 3 to 6 hr by Western blot analysis; assay type: cell-based; settings: dose 10-100 nM, time 3-6 hrs
# [4] = tested on: Protein cereblon/Androgen receptor (Homo sapiens), P10275+Q96SW2 [UNDEFINED MUTATION]; experiment: Induction of AR 388 to 390 deletion mutant degradation in HEK293 cells assessed as induction of androgen receptor degradation at 0.01 to 10 uM measured for 24 hrs by Western blot analysis; assay type: cell-based; settings: dose 0.01-10 µM
# LNCaP [5] = experiment: Downregulation of TMPRSS2 expression in human LNCaP cells measured for 24 hrs; assay type: functional, cell-based; settings: dose 0.03-1000 nM
# [6] = tested on: Protein cereblon/Androgen receptor (Homo sapiens), P10275+Q96SW2 [UNDEFINED MUTATION]; experiment: Induction of AR H875Y mutant degradation in HEK293 cells assessed as induction of androgen receptor degradation at 1 nM measured for 24 hrs by Western blot analysis; assay type: cell-based
# [7] = tested on: Protein cereblon/Androgen receptor (Homo sapiens), P10275+Q96SW2 [UNDEFINED MUTATION]; experiment: Induction of AR F877L mutant degradation in HEK293 cells assessed as induction of androgen receptor degradation at 1 nM measured for 24 hrs by Western blot analysis; assay type: cell-based
# VCaP [8] = experiment: Downregulation of PLOD2 protein expression in human VCaP cells at 1 uM measured for 24 hrs by proteomics analysis; assay type: functional, cell-based
# [9] = tested on: Protein cereblon/Androgen receptor (Homo sapiens), P10275+Q96SW2 [UNDEFINED MUTATION]; experiment: Induction of AR T878A mutant degradation in HEK293 cells assessed as induction of androgen receptor degradation at 1 nM measured for 24 hrs by Western blot analysis; assay type: cell-based
# [10] = biological target: T1, Protein cereblon/Androgen receptor; experiment: PROTAC activity at AR/CRBN in human VCaP cells assessed as induction of androgen receptor degradation at 10 to 100 nM measured after 1 hr by Western blot analysis relative to control; assay type: cell-based; settings: dose 10-100 nM
# [11] = tested on: Protein cereblon/Androgen receptor (Homo sapiens), P10275+Q96SW2 [K388R]; experiment: Induction of AR K388R mutant degradation in HEK293 cells assessed as induction of androgen receptor degradation at 0.01 to 10 uM measured for 24 hrs by Western blot analysis; assay type: cell-based; settings: dose 0.01-10 µM
# [12] = biological target: T1, Protein cereblon/Androgen receptor; experiment: PROTAC activity at AR/CRBN in human VCaP cells assessed as induction of androgen receptor degradation at 100 nM measured for 3 hrs in presence of MG132 by Western blot analysis; assay type: cell-based
# VCaP [13] = experiment: Downregulation of PCLAF protein expression in human VCaP cells at 1 uM measured for 24 hrs by proteomics analysis; assay type: functional, cell-based
# [14] = tested on: Protein cereblon/Androgen receptor (Homo sapiens), P10275+Q96SW2 [UNDEFINED MUTATION]; experiment: Induction of AR W742C mutant degradation in HEK293 cells assessed as induction of androgen receptor degradation at 1 nM measured for 24 hrs by Western blot analysis; assay type: cell-based
# [15] = biological target: T1, Protein cereblon/Androgen receptor; experiment: PROTAC activity at AR/CRBN in human LNCaP cells assessed as induction of androgen receptor degradation at 10 to 100 nM measured after 3 to 6 hr by Western blot analysis; assay type: cell-based; settings: dose 10-100 nM, time 3-6 hrs
# VCaP [16] = experiment: Downregulation of HAUS8 protein expression in human VCaP cells at 100 nM measured for 24 hrs by proteomics analysis; assay type: functional, cell-based
# [17] = tested on: Protein cereblon/Androgen receptor (Homo sapiens), P10275+Q96SW2 [UNDEFINED MUTATION]; experiment: Induction of AR 873 to 879 deletion mutant degradation in HEK293 cells assessed as induction of androgen receptor degradation at 1 nM measured for 24 hrs by Western blot analysis; assay type: cell-based
# [18] = biological target: T1, Protein cereblon/Androgen receptor; experiment: PROTAC activity at AR/CRBN in human VCaP cells assessed as induction of androgen receptor degradation at 0.1 to 1000 nM measured at 24 hrs by proteomics analysis; assay type: cell-based; settings: dose 0.1-1000 nM
# [19] = tested on: Protein cereblon/Androgen receptor (Homo sapiens), P10275+Q96SW2 [K388R]; experiment: Induction of AR K388R mutant degradation in HEK293 cells assessed as induction of androgen receptor degradation at 1 nM measured for 24 hrs by Western blot analysis; assay type: cell-based
# VCaP [20] = experiment: Downregulation of TMPRSS2 expression in human VCaP cells measured for 24 hrs; assay type: functional, cell-based; settings: dose 0.03-1000 nM
# [21] = biological target: T1, Protein cereblon/Androgen receptor; experiment: PROTAC activity at AR/CRBN in human LNCaP cells assessed as induction of androgen receptor degradation at 10 to 100 nM measured after 1 hr by Western blot analysis relative to control; assay type: cell-based; settings: dose 10-100 nM
# VCaP [22] = experiment: Downregulation of KLK3 expression in human VCaP cells measured for 24 hrs; assay type: functional, cell-based; settings: dose 0.03-1000 nM
# LNCaP [23] = experiment: Downregulation of KLK3 expression in human LNCaP cells measured for 24 hrs; assay type: functional, cell-based; settings: dose 0.03-1000 nM
# [24] = tested on: Protein cereblon/Androgen receptor (Homo sapiens), P10275+Q96SW2 [V716M]; experiment: Induction of AR V716M mutant degradation in HEK293 cells assessed as induction of androgen receptor degradation at 1 nM measured for 24 hrs by Western blot analysis; assay type: cell-based
# [25] = biological target: T1, Protein cereblon/Androgen receptor; experiment: PROTAC activity at AR/CRBN in human VCaP cells assessed as induction of androgen receptor degradation at 100 nM measured for 3 hrs in presence of enzalutamide by Western blot analysis; assay type: cell-based
# [26] = biological target: T1, Protein cereblon/Androgen receptor; experiment: PROTAC activity at AR/CRBN in HEK293 cells assessed as induction of androgen receptor degradation at 1 nM measured for 24 hrs by Western blot analysis; assay type: cell-based
# [27] = biological target: T1, Protein cereblon/Androgen receptor; experiment: PROTAC activity at AR/CRBN in human VCaP cells assessed as induction of androgen receptor degradation at 100 nM measured for 3 hrs in presence of thalidomide by Western blot analysis; assay type: cell-based
# VCaP [28] = experiment: Antitumor activity against human VCaP cells xenografted in po dosed CB17-SCID mouse assessed as inhibition of tumor growth administered for 21 days; assay type: functional, organism-based; settings: dose 10-40 mg/kg, time 21.0 day
structure (smiles),measurement,setting,value
C[C@H]1CC2(CCN(c3ccc(C(=O)N4CCC(CN5Cc6cc7c(cc6C5)C(=O)N(C5CCC(=O)NC5=O)C7=O)CC4)cc3)CC2)CN1c1ccc(C#N)c(Cl)c1 (stereo partly drawn),Emax,[1],> 95%
same,Activity,[2],Active
same,Activity,[3],Active
same,Activity,[4],Active
same,Activity,LNCaP [5],Dose-Dependent Effect
same,Activity,[6],Active
same,Activity,[7],Active
same,Activity,VCaP [8],inactive
same,Activity,[9],Active
same,Activity,[10],> 50%
same,Activity,[11],Active
same,Activity,[12],Active
same,Activity,VCaP [13],inactive
same,Activity,[14],Active
same,Activity,[15],Active
same,Activity,VCaP [16],inactive
same,Activity,[17],Active
same,Activity,[18],> 75%
same,Activity,[19],Active
same,Activity,VCaP [20],Dose-Dependent Effect
same,Activity,[21],> 50%
same,Activity,VCaP [22],Dose-Dependent Effect
same,Activity,LNCaP [23],Dose-Dependent Effect
same,Activity,[24],Active
same,Activity,[25],Active
same,Activity,[26],Active
same,Activity,[27],Active
same,Activity,VCaP [28],Dose-Dependent Effect

# Calls of active or inactive are those of the source. The calls are words filed in the database; no cut-off is given here.
